The chains behind the UniProt entries cited, without tags or fusion partners.
UniProt Q9NZQ8, whole entry: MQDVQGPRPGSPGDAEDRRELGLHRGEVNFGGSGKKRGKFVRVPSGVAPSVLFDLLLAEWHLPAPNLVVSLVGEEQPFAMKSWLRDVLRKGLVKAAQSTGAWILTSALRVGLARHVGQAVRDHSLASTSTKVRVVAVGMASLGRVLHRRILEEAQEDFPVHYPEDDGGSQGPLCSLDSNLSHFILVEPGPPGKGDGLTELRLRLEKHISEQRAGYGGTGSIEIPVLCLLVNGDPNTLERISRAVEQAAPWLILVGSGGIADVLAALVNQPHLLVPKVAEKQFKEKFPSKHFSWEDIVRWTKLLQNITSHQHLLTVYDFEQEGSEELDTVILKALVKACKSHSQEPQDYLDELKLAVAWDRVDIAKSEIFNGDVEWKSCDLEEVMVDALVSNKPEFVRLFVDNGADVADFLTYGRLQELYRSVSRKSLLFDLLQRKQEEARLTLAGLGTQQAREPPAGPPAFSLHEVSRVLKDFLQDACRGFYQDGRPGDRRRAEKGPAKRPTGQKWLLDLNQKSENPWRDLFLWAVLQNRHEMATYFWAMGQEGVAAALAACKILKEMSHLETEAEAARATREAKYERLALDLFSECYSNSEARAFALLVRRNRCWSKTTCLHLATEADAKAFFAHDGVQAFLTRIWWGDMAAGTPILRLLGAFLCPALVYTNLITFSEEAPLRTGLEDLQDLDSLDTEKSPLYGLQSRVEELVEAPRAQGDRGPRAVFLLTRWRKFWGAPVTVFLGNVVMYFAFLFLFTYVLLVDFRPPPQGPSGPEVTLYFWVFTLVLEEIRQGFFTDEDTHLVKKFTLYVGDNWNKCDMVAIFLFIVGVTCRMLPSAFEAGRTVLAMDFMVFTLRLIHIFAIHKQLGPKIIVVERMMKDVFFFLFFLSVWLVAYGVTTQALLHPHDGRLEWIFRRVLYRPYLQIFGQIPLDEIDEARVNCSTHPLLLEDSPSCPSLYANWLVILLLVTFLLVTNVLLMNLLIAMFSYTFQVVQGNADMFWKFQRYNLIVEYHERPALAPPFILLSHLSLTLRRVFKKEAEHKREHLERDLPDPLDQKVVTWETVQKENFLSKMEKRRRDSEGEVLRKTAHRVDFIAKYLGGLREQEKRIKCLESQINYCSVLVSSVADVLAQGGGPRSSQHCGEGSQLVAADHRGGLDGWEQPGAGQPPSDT
UniProt Q8TD43, whole entry: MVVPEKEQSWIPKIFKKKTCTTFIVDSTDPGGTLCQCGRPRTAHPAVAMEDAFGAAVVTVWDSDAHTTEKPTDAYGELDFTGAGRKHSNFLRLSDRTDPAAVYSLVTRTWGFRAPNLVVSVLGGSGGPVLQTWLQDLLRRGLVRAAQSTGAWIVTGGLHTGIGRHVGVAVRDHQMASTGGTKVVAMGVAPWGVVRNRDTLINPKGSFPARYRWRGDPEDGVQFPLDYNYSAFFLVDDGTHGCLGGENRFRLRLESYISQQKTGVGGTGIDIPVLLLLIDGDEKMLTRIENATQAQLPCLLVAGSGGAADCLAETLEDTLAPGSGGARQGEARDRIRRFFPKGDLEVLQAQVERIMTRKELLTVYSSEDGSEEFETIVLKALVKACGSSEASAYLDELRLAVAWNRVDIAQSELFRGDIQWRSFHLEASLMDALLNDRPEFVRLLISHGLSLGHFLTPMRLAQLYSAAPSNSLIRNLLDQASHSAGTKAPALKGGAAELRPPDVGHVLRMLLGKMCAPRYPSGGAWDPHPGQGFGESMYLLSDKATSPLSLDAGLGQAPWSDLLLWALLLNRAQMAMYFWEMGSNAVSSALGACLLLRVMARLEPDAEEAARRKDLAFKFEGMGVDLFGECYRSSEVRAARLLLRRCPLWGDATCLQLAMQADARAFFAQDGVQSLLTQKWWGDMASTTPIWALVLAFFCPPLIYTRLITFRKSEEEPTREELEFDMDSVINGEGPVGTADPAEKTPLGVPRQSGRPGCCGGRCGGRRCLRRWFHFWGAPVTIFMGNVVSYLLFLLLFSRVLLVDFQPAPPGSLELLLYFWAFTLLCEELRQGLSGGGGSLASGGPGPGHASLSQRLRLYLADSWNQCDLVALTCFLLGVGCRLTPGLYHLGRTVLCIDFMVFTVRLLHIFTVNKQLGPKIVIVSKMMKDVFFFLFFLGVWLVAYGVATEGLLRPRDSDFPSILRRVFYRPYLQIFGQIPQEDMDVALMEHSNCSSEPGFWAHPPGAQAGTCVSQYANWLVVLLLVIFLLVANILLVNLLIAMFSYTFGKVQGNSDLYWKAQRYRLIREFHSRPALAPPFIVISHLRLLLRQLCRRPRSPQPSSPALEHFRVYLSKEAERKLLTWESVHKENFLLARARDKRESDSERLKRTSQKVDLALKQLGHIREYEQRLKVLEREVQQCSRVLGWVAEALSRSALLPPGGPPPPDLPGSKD

According to publication PMC11648915, “Identification and development of TRPM4 antagonists to counteract neuronal excitotoxicity” (iScience, 2024):

Columns and labels:
human TRPM5 = human TRPM5 (Homo sapiens, UniProt Q9NZQ8); experiment: QPatch automated patch clamp on TRPM5-expressing HEK293 cells; conditions: read-out: TRPM5 IC50, hsTRPM5-expressing HEK293 cells
human TRPM4 = human TRPM4 (Homo sapiens, UniProt Q8TD43); experiment: QPatch automated patch clamp on TRPM4-expressing HEK293 cells; format: cell-based; conditions: read-out: TRPM4 IC50, hsTRPM4-expressing HEK293 cells
[1] = system: primary mouse neuronal cultures; experiment: Glutamate-induced excitotoxicity assay (RealTime-Glo viability); conditions: 5 μM

| SMILES | pIC50 (human TRPM5) | pIC50 (human TRPM4) | Compound toxicity in neuronal cultures [1] |
| --- | --- | --- | --- |
| Cc1ccc(-c2ccccc2NCC2CCOCC2)s1 | 5.41 | 5.95 | observed toxicity |
| Cc1ccc(-c2ccccc2NCc2ccccn2)s1 | 4.74 | 5.34 | – |

pIC50: −log10 of the molar value.
